Test system: red blood cells
Assay: Red blood cell hemolysis assay
Format: cell-based
Details: 1 hour at 37° C., maximum dose tested
Procedure: FIG. 9 is a graph illustrating red blood cell lysis by the 37pA peptide and derivative peptides (1A, 2A, 3A, 4A, 5A, and 10A). Red blood cells were incubated with the indicated concentration of the peptides for 1 hour at 37° C. Results are expressed as the mean of triplicates ±1 SD.
The 37pA peptide and all of the modified peptides were then tested for cytotoxicity, using a red blood cell hemolysis assay (FIG. 9). […] Approximately 25% of the red blood cells were lysed after 1 hour at the maximum dose tested (FIG. 9). Overall, the modified peptides containing the Ala substitutions were less cytotoxic, and the degree of cytotoxicity closely correlated with the number of Ala substitutions.

Sequence: DWLKAFYDKVAEKLKEAFPDWLKAFYDKVA EKLKEAF [37pA, reference compound]
- red blood cells lysed (hemolysis): Approximately 25%

Reference: US8936787B2, “Peptides promoting lipid efflux” (The United States of America as represented by the …, priority 2008, dated 2015)
